Earlier results, collected in patent publication US11747352B2 (Concordia University, Inc., priority 2017, dated 2023).

Settings: Table CYP1A2; cited from earlier work

## CN(C)CCc1c[nH]c2ccc(C[C@H]3COC(=O)N3)cc12 [Zolmirripran]
  HALF LIFE: 3 h
